{"source": "DBAASP", "key": {"[1]": {"tested_on": "Escherichia coli K-12", "test": "≥ marks a high value that may be exact or a test limit, other limits are often not marked, values filed in µg/mL are converted to µM"}, "[2]": {"tested_on": "Staphylococcus aureus ATCC 12600", "test": "≥ marks a high value that may be exact or a test limit, other limits are often not marked, values filed in µg/mL are converted to µM"}}}
{"smiles": "CC[C@H](C)[C@H](NC(=O)[C@H](CCCCN)NC(=O)[C@@H](N)Cc1ccccc1)C(=O)N[C@@H](CCCCN)C(=O)N[C@@H](C)C(=O)N[C@@H](CO)C(=O)N[C@@H](CCCCN)C(=O)N[C@@H](CCCCN)C(=O)N[C@@H](CC(C)C)C(=O)N[C@@H](CC(C)C)C(=O)N[C@@H](CCCCN)C(=O)N[C@@H](CCCCN)C(=O)N[C@H](C(=O)NCC(=O)N[C@@H](CCCCN)C(=O)NCC(=O)N[C@@H](C)C(=O)N[C@@H](CC(C)C)C(=O)NCC(=O)N[C@@H](C)C(=O)N[C@H](C(=O)N[C@@H](C)C(=O)N[C@@H](CCCCN)C(=O)N[C@@H](C)C(=O)N[C@@H](CC(C)C)C(=O)N[C@@H](C)C(=O)N[C@@H](CCC(N)=O)C(=O)N[C@@H](CCC(N)=O)C(=O)N[C@@H](C)C(=O)O)C(C)C)C(C)C", "note": "[FKIKASKKLLKKVGKGALGAVAKALAQQA]", "values": [{"measurement": "MIC", "setting": "[1]", "result": 4, "unit": "µM"}, {"measurement": "MIC", "setting": "[2]", "result": "≥ 128", "unit": "µM"}]}
{"smiles": "CC[C@H](C)[C@H](NC(=O)[C@@H]1CCCN1C(=O)[C@H](CCCCN)NC(=O)[C@H](CC(C)C)NC(=O)[C@H](C)NC(=O)[C@@H](NC(=O)[C@@H](NC(=O)[C@H](CC(C)C)NC(=O)[C@@H](NC(=O)[C@H](CCCCN)NC(=O)[C@H](CCCCN)NC(=O)[C@H](C)NC(=O)[C@H](C)NC(=O)[C@H](CO)NC(=O)[C@@H](NC(=O)[C@H](CC(C)C)NC(=O)[C@H](CCCCN)NC(=O)[C@H](CCCCN)NC(=O)[C@H](CC(C)C)NC(=O)[C@H](Cc1ccccc1)NC(=O)[C@H](CO)NC(=O)[C@H](CCCCN)NC(=O)[C@H](Cc1c[nH]c2ccccc12)NC(=O)[C@@H](N)CCCCN)[C@@H](C)O)C(C)C)[C@@H](C)O)[C@@H](C)O)C(=O)N[C@@H](CO)C(=O)N[C@@H](CO)C(=O)O", "note": "[KWKSFLKKLTSAAKKVLTTALKPISS]", "values": [{"measurement": "MIC", "setting": "[1]", "result": 4, "unit": "µM"}, {"measurement": "MIC", "setting": "[2]", "result": "≥ 64", "unit": "µM"}]}
{"smiles": "CC[C@H](C)[C@H](NC(=O)[C@@H]1CCCN1C(=O)[C@H](CCCCN)NC(=O)[C@H](CC(C)C)NC(=O)[C@H](C)NC(=O)[C@@H](NC(=O)[C@H](Cc1ccc(O)cc1)NC(=O)[C@H](Cc1ccccc1)NC(=O)[C@@H](NC(=O)[C@@H](NC(=O)[C@H](CCCCN)NC(=O)[C@@H](NC(=O)[C@@H]1CCCN1C(=O)[C@H](CO)NC(=O)[C@H](CCCCN)NC(=O)[C@H](Cc1ccccc1)NC(=O)[C@@H](NC(=O)[C@H](CCCCN)NC(=O)[C@H](CC(C)C)NC(=O)[C@H](Cc1ccccc1)NC(=O)[C@H](CO)NC(=O)[C@H](CCCCN)NC(=O)[C@H](Cc1c[nH]c2ccccc12)NC(=O)[C@@H](N)CCCCN)[C@@H](C)O)C(C)C)[C@@H](C)O)C(C)C)[C@@H](C)O)C(=O)N[C@@H](CO)C(=O)N[C@@H](CO)C(=O)O", "note": "[KWKSFLKTFKSPVKTVFYTALKPISS]", "values": [{"measurement": "MIC", "setting": "[1]", "result": 2, "unit": "µM"}, {"measurement": "MIC", "setting": "[2]", "result": "≥ 128", "unit": "µM"}]}
{"smiles": "CC(C)C[C@H](NC(=O)[C@H](CC(N)=O)NC(=O)[C@H](CCC(=O)O)NC(=O)[C@H](CC(N)=O)NC(=O)[C@H](CC(C)C)NC(=O)[C@@H](N)C(C)C)C(=O)N[C@@H](C)C(=O)N[C@@H](C)C(=O)O", "note": "[VLNENLAA]", "values": [{"measurement": "MIC", "setting": "[2]", "result": "≥ 128", "unit": "µM"}]}
